# Ab-14 light chain CDR variants: yeast mating affinities

Source: Li et al. 2023 (doi:10.1038/s41467-023-39022-2), MIT Lincoln Laboratory and A-Alpha Bio; data file from the FLAb repository.

Binding partner: SARS-CoV-2 spike HR2 peptide, sequence PDVDLGDISGINAS.

Parent scFv Ab-14: VH joined to VL by the linker GGGGSGGGGSGGGGS. Changes lie in the light chain CDRs alone.
VH: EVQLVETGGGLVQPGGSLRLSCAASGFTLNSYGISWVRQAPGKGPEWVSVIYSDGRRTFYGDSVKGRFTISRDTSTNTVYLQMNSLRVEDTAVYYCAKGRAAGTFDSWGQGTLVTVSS
VL: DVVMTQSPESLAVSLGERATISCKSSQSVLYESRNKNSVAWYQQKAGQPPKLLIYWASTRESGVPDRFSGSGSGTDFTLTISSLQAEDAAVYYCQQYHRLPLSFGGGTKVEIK

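These sequences belong to a second round, designed from the earlier measurements on random variants of the parent. Group labels follow the data file (En: ensemble of fine-tuned language models; GP: Gaussian process model; HC: hill climbing; Gen: genetic algorithm; Gibbs: Gibbs sampling; a sequence that several methods proposed may carry one label only). Affinity was read by AlphaSeq, a pooled yeast mating assay with surface-displayed partners. After mating in shaken culture at 30 °C for 16 h, diploids were selected and their barcode pairs sequenced. A regression on co-assayed BCL2-family reference pairs converts the normalised counts of each replicate to an apparent Kd. Each pool was mated in six replicate cultures.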

The parent's light chain CDRs are KSSQSVLYESRNKNSVA, WASTRES, QQYHRLPLS; each variant's own CDRs replace them letter for letter.
Variants here have more than six changes.
Each Kd is an estimate from the mating assay, the geometric mean of the replicates in which the pair was seen; lower is stronger.
"no signal" means that the variant was in the library but no mating with the target was seen in any replicate; the authors take this as a sign of poor binding, and no number exists.

CDR-L1	CDR-L2	CDR-L3	group	Kd	detected
MISQLFMYGSRNRNSIA	QASTREK	QQYDRLPLI	En_HC	18 nM	6 of 6
MISQLYNMGQFAINSVA	QASVRNE	QQYDRLPLI	En_Gen	190 nM	4 of 6
MISQVMNTLTRNGNNVA	DLTEREK	QQYFRLPLT	En_Gen	16 nM	3 of 6
SVTRETDENGLKMNSVA	DAAEAMT	QQYQRLPLT	En_Gibbs	1.9 nM	6 of 6
KVREVQHVESKQKNNVA	DNSTRES	QDYYRLPLS	En_HC	2.6 µM	6 of 6
KLYQSEGYESRMKNNVA	NASLRES	QQYHRLPLS	GP_Gibbs	730 pM	6 of 6
KLMGQGDHSIAHANSIA	NVDNVDM	QQYAHLPLS	En_Gibbs	82 nM	5 of 6
KLQMSVMLESRWCNSVA	SASTREE	QQYHRLPLS	GP_Gibbs	15 nM	4 of 6
MLSQSVGYESRNKSRVA	DNSTRES	QQYDRLPLS	En_HC	100 µM	1 of 6
MVQQLYNMGTFAINSVA	QASTRNE	QQYDRLPLM	En_Gen	33 nM	6 of 6
MMSQVTGSGTRHRNNVA	QTSVREP	QQYDRLPLI	En_Gen	14 nM	6 of 6
KLSQSVGYGQRNKNSVA	EASTRMS	QQYHRLPLY	GP_Gibbs	3.5 nM	6 of 6
KLSQSVEQLSRNKNSVA	NASQREV	QQYHRLPLS	GP_Gibbs	500 pM	6 of 6
DFEQWTFSQNRDDNSIA	HADEVVR	QQYDRLPLT	En_Gibbs	32 nM	6 of 6
RMSVFMLTDENVWYSIA	NSAAVRI	QQYQRLPLS	En_Gibbs	no signal	0 of 6
RMSVFMLTDENVWYSVA	NSAATRI	QQYQRLPLS	En_Gibbs	no signal	0 of 6
TISMHTSLFSQTINNVA	EVSTREQ	QQYDRLPLA	En_Gen	3.9 nM	6 of 6
TFSQTVMYESTMRNNVA	QTSTRES	QQYDRLPLS	En_HC	2.0 nM	6 of 6
NLSWKQIGQNMESMAVA	HTEQRNA	QQYARLPLS	En_Gibbs	1.3 nM	6 of 6
MISDLTMYGSRNVSSVA	DLSTRGS	QQYHRLPLS	En_HC	3.5 nM	6 of 6
KVSQKDPMGSRNKNSVA	HASVRED	QQYHRLPLS	GP_Gibbs	680 pM	6 of 6
MMTMFPNEPTGDSNAIA	DHSQLNT	QQYQRLPLM	En_Gibbs	3.5 nM	6 of 6
KLSMSVMMWSRNKNSVA	SANTREE	QQYHRLPLS	GP_Gibbs	890 pM	6 of 6
MISQLMNMGQFAINSVA	QASLRNE	QQYDRLPLA	En_Gen	31 nM	6 of 6
KLGNQEQMNGMMTQNVA	AMNTVVD	QEYHRLPLI	En_Gibbs	1.4 nM	6 of 6
KISQMVRVGSTVKNSIA	EEQTRAK	QQYHRLPLA	En_Gen	45 nM	4 of 6
HITMGMYVMGRHHSSIA	QAETRMQ	QQYDRLPLI	En_Gen	19 nM	6 of 6
KLGDMVHTLSHNKNSIA	DMRTRES	QQYYRLPLS	En_HC	1.2 nM	6 of 6
KITLIFSNKGNSRHSVA	NAETLAH	QQYYMLPLM	En_Gibbs	830 nM	4 of 6
QIYQAMHTLMQMKNNVA	DVNERGD	QQYFRLPLA	En_Gen	830 pM	6 of 6
KISQMSTIESIMHNSVA	QTSTRES	QQYDRLPLS	En_HC	130 nM	5 of 6
KLSMITGHMSMSRNNVA	EMATREN	QQYDRLPLS	En_Gen	7.6 nM	1 of 6
KLSQSVLMESRMVNNVA	EASQRES	QQYHRLPLS	GP_Gibbs	610 pM	6 of 6
MISQIYNMGQFAINSVA	QASVRNE	QQYDRLPLQ	En_Gen	25 nM	6 of 6
KLSQSVEQLSRNKNSVA	MASQREV	QQYHRLPLS	GP_Gibbs	1.1 nM	6 of 6
KFEPSWLYESRNVNSVA	NASTRSD	QQYHRLPLS	GP_Gibbs	460 pM	6 of 6
NMSDSQERDASILRNIA	DQTTRAM	QQYARLPLS	En_Gibbs	1.0 nM	6 of 6
KLVGVDDNDNNPMSAIA	DVSTLDN	QQYHRLPLD	En_Gibbs	3.1 nM	6 of 6
KIDSQYQHGTDQKKAMA	DSSVRTQ	QQYSRLPLS	En_Gibbs	980 pM	6 of 6
KLDHYKLGENGMRGSIA	NMTIREY	QQYFHLPLF	En_Gibbs	3.1 nM	6 of 6
WLNAEDQGDDRGMNNIA	GGDTKMA	QQYHRLPLS	En_Gibbs	1.1 nM	6 of 6
KISYQYRFEQLSKDNIA	EVVTRLK	QQYHRLPLS	En_HC	450 nM	5 of 6
GIHSQMVGTIAVFQNVA	NANTRLM	QQYSRLPLS	En_Gibbs	11 nM	6 of 6
MISQLMNMGQFAINSVA	QATIRNN	QQYDRLPLA	En_Gen	120 nM	4 of 6
KLTMITGLEKVQGNNVA	EMETRER	QQYNRLPLS	En_Gen	7.0 nM	6 of 6
MLSQMWALGMKVKNSVA	QASMRFN	QQYDRLPLV	En_Gen	no signal	0 of 6
KMQGSVMMLSRNDNSVA	DASTREE	QQYHRLPLS	GP_Gibbs	970 pM	6 of 6
KFMQSMPYESRNKNSVA	EASQREL	QQYHRLPLS	GP_Gibbs	2.2 nM	6 of 6
KLQQSVQYESRNQNAVA	QASQRES	QQYHRLPLS	GP_Gibbs	1.0 nM	6 of 6
KLSATYRYESENKNSIA	EMTTRES	QCYHRLPLS	En_HC	200 nM	4 of 6
KLGDMVHTLSRNKNSIA	DMRTRES	QQYFRLPLS	En_HC	no signal	0 of 6
MLSSVLHMHGVKKNSIA	DLVLRAN	QQYHRLPLS	En_Gen	150 nM	6 of 6
KVSQSMEYQSRNKNNVA	NASTREQ	QSYHRLPLS	GP_Gibbs	1.3 nM	6 of 6
KVSFSVMLESRNKNAVA	EASQRSS	QQYHRLPLS	GP_Gibbs	860 pM	6 of 6
ASSQSVMGEERNSNSVA	AASTREV	QQYHRLPLS	GP_Gibbs	3.3 nM	6 of 6
KISMMYNFAQTNKNSIA	EMTTRES	QHYHRLPLS	En_HC	4.8 nM	6 of 6
KITSTMRFEQKNSNNIA	EVSMRTK	QQYVRLPLA	En_Gen	1.8 nM	6 of 6
MISQLYNMGTFAINSVA	QAEIRNA	QQYDRLPLT	En_Gen	32 nM	6 of 6
MMSQVTMSGMRHRNNVA	QTSTREN	QQYDRLPLI	En_Gen	11 nM	6 of 6
HMSMLTLMGMKQRNSVA	QMTTREN	QQYDRLPLA	En_Gen	14 nM	3 of 6
KLNHLSFVHDREWNNVA	DLNVKAS	QQYDRLPLV	En_Gibbs	2.3 nM	6 of 6
KLIQSVAMSSREKDSIA	DNSTREY	QQYHRLPLS	En_HC	100 nM	6 of 6
KVSPSWWYESRNKANVA	HASTRES	QQYHRLPLH	GP_Gibbs	2.6 nM	6 of 6

The closing 8 entries, repeated:

CDR-L1,CDR-L2,CDR-L3,group,Kd,detected
KISMMYNFAQTNKNSIA,EMTTRES,QHYHRLPLS,En_HC,4.8 nM,6 of 6
KITSTMRFEQKNSNNIA,EVSMRTK,QQYVRLPLA,En_Gen,1.8 nM,6 of 6
MISQLYNMGTFAINSVA,QAEIRNA,QQYDRLPLT,En_Gen,32 nM,6 of 6
MMSQVTMSGMRHRNNVA,QTSTREN,QQYDRLPLI,En_Gen,11 nM,6 of 6
HMSMLTLMGMKQRNSVA,QMTTREN,QQYDRLPLA,En_Gen,14 nM,3 of 6
KLNHLSFVHDREWNNVA,DLNVKAS,QQYDRLPLV,En_Gibbs,2.3 nM,6 of 6
KLIQSVAMSSREKDSIA,DNSTREY,QQYHRLPLS,En_HC,100 nM,6 of 6
KVSPSWWYESRNKANVA,HASTRES,QQYHRLPLH,GP_Gibbs,2.6 nM,6 of 6

The range of this assay differs from that of the first round, and the authors advise against merging the two.
The authors' rule: three or more of the six replicates give a measured affinity, fewer mean a poor binder.
Background: pairings of all light chain designs with three empty control strains gave a value in 4% of cases (median 430 nM, 5th percentile 38 nM). Values in that range, when seen in few replicates, are hard to tell from nonspecific mating.
The parent sequence was in this pool as ten entries: three were never detected, three once, and four in most replicates, with averages from 2.2 nM to 240 nM.